Results on 1 molecule are retold here after patent publication US20250288571A1 (Nested Therapeutics, Inc., priority 2024, published 2025).

Structures are written as SMILES. Where only a bound is given, the exact number is not on record here.

Data set [1] concerns IPC298 cells. Briefly: IPC298 Cell Titer Glow assay (CTG). Background: Cellular ATP, detected with luciferase, serves as a proxy for viable cell number.
In data set [2] the test system is HCT116 cells. Description: HCT116 Cell Titer Glow assay (CTG).

For orientation: IC50 means the concentration that gives 50% inhibition. As to `CNS(=O)(=O)Nc1nccc(Cc2cncc(OC(=O)N(C)C)c2C)c1F`, in data set [1] (72 hours, 100 uM, percent cells remaining after treatment), the “CTG % cell viability 100 uM IPC298.2” value came to 94.66%. For the same molecule, the IC50 in data set [1] (read-out: CTG IC50 (nM) Cell Line: IPC298.2, 72 hours) is greater than 1000 nM; in data set [2] (read-out: CTG IC50 (nM) Cell Line: HCT116.20, 72 hours), greater than 1000 nM. Also, in data set [2] (72 hours, 1000 uM, percent cells remaining after treatment), the “CTG % cell viability 1000 uM HCT116.20” value is 93.19%.
